Test results from patent publication US8742113B2, “Furanone derivative” (SBI Biotech Co., Ltd., priority 2011, dated 2014).

Chains of the proteins cited; added tags and fusions are not shown. Lines headed by an entry give the natural chain unless they say otherwise; changes in a name come on top.
UniProt O00311: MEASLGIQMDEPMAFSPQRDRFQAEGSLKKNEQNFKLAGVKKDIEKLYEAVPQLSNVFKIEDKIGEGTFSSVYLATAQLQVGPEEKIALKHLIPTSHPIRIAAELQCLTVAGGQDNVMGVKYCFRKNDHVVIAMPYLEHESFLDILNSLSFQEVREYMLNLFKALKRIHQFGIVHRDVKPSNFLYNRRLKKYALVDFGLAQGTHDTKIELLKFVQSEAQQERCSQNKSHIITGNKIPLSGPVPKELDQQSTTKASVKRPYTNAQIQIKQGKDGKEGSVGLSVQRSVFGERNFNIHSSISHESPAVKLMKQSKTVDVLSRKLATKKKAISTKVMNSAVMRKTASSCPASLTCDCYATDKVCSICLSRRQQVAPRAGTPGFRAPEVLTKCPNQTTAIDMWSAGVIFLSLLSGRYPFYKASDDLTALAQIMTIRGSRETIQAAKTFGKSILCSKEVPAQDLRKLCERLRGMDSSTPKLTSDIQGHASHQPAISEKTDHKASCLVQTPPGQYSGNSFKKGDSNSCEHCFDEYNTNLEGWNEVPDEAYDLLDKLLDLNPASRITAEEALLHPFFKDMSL

Target: human Cdc7/human ASK complex protein (Homo sapiens (Human), UniProt O00311)
Assay: Inhibitory effect on Cdc7 protein kinase (MSA assay kit)
Assay type: biochemical
Conditions: FITC-labeled MCM2 peptide substrate, reaction 5 hours at room temperature, read-out: Test Example 1 Cdc7 IC50 value
Description: [Inhibitory Effect on Cdc7 Protein Kinase]
Measurement of kinase activity was carried out using an MSA assay kit (QuickScout Screening Assist™ Kit, Carna Biosciences, Inc.).
Assay buffer (20 mM HEPES, 0.01% Triton X-100™, 2 mM dithiothreitol, pH 7.5) was used to prepare a substrate mixture solution comprising 4 μM of a kinase-reaction substrate (FITC-labeled MCM2 peptide), 40 mM MgCl2, and 20 μM ATP.
The enzyme supplied in the kit (human Cdc7/human ASK complex protein) was diluted in the assay buffer so as to be at 7 nM, thereby preparing an enzyme solution. […]
The kinase reaction was performed in wells of a polypropylene 384-well plate in which 5 μl of each of the drug solutions or of a solvent (assay buffer containing 4% DMSO), 5 μl of the substrate mixture solution, and 10 μl of the enzyme solution were mixed. […] The percent inhibition of each reaction was determined using a LabChip EZ Reader II system (manufactured by Caliper Life Sciences), according to the protocol provided with the assay kit. […]
The IC50 value of a tested compound was calculated by regression analysis of the percent inhibition values versus the (logarithmic) concentrations of the tested compound.

CCOC(=O)C1=C(N2CCCCCC2)O/C(=C\c2c[nH]c3ncccc23)C1=O [Example 63]
IC50: 6 nM
